Earlier results in US10596162B2 (WYETH LLC, priority 2005, dated 2020).

Tested on: NCI-H1650 cells (delE746-A750 EGFR)
Conditions: cited from earlier work

COc1cc2ncnc(Nc3ccc(F)c(Cl)c3)c2cc1OCCCN1CCOCC1 [gefitinib, Gefitinib, reference compound]
increased sensitivity to gefitinib compared with some NSCLC lines expressing wild-type EGFR: 100 fold
